{"source": "patent US7303915B2", "about": "“In vitro-differentiated retinal ganglion cells and method for producing same” (Wisconsin Alumni Research Foundation, priority 2005, dated 2007)", "test_system": "RGC-5 cells", "conditions": "1 μM for 24 hours, 100 μM BrdU for the final 2 hours; untreated control 69.5%", "data": [{"compound": "CN[C@@H]1C[C@H]2O[C@@](C)([C@@H]1OC)n1c3ccccc3c3c4c(c5c6ccccc6n2c5c31)C(=O)NC4", "note": "[staurosporine]", "values": [{"measurement": "cells with BrdU incorporation", "result": 2.2, "unit": "%"}]}]}
